Results: ChEMBL document CHEMBL2412971, “Selective orexin receptor antagonists” (Bioorg Med Chem Lett, 2013)

Sequences of proteins named here, by UniProt entry; tags and fusion partners are left off.
UniProt O43614, whole entry: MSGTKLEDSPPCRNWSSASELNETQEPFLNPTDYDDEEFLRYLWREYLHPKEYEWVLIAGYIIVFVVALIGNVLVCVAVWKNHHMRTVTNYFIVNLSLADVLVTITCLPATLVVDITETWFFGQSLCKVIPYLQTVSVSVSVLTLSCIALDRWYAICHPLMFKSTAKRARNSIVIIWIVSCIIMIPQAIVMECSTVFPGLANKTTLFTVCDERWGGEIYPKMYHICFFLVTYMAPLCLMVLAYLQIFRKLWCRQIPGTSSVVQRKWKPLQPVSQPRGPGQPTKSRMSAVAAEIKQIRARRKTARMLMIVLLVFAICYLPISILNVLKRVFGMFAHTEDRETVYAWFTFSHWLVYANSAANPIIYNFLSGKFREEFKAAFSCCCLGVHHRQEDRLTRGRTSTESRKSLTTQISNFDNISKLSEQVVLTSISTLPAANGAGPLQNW

Target: Orexin receptor type 2 (Homo sapiens, UniProt O43614)
Experiment: Binding affinity to orexin receptor 2 (unknown origin)

COc1ccc(C[C@H]2c3cc(OC)c(OC)cc3CCN2[C@@H](C(=O)NC(C)C)c2ccccc2)cc1OC
IC50: 417 nM
